Experimental findings from patent US8298328B2, “Amorphous metal salt for facilitating the handling property of portland cements and dental applications thereof” (Taipei Medical University, priority 2008, dated 2012) are described below.

This series in a line: Water solubility of the divalent metal salt powder. Particulars: 25° C., dried powder.

In the case of “Calcium Gluconate [Comparative Example 2, reference compound]”, the “Solubility (water solubility)” value is 3.0~4.0 g/100 ml. The “Solubility (water solubility)” value (listed as CG) was 3.0˜4.0 g/100 ml.
